Reference: ChEMBL document CHEMBL3769379, “SAR Studies of 5-Aminopyrazole-4-carboxamide Analogues as Potent and Selective Inhibitors of Toxoplasma gondii CDPK1” (ACS Med Chem Lett, 2015)

Biological target: T1, Calmodulin-domain protein kinase 1 (Toxoplasma gondii, UniProt Q9BJF5)
T1 sequence (Q9BJF5 whole entry): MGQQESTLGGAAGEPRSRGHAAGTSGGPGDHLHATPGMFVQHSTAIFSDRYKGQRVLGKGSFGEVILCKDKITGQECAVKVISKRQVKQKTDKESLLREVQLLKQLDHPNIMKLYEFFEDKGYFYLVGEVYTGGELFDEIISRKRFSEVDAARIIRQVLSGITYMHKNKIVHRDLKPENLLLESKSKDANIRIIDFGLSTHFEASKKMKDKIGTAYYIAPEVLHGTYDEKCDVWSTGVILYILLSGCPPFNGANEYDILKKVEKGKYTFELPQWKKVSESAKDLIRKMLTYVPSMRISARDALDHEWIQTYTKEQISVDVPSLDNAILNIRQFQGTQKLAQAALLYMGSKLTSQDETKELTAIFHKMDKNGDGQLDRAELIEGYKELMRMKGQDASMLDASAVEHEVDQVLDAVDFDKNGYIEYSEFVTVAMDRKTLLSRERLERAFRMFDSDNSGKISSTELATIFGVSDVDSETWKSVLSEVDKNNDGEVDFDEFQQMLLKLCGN

CCOc1ccc2cc(-c3nn(C(C)CCO)c(N)c3C(N)=O)cnc2c1 (stereo unspecified)
IC50: 20 nM
